What was measured:
A1 adenosine receptor = A1 adenosine receptor (Rattus norvegicus, UniProt P25099); conditions: cited from earlier work
A1 receptors = A1 receptors (Mus musculus, UniProt Q60612); experiment: Inhibition of forskolin-stimulated cAMP accumulation in mouse eEPCs; conditions: data from the current study (no reference); 95% CI in parentheses
A2B receptors = target: T1, A2B receptors (Mus musculus, UniProt Q60614); experiment: NECA-stimulated cAMP accumulation in MCEC-1 cells; conditions: data from the current study (no reference); 95% CI in parentheses
T1 sequence (Q60614 1-332): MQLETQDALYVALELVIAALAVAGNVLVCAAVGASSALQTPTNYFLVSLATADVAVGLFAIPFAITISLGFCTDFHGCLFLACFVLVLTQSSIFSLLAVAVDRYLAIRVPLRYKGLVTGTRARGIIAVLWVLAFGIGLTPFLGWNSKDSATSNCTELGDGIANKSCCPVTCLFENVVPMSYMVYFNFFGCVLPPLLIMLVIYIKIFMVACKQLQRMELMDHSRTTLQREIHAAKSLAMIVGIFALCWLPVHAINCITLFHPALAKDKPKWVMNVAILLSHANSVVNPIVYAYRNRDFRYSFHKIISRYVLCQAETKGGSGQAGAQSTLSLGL

Sequences of proteins named here, by UniProt entry; tags and fusion partners are left off.
UniProt P25099, whole entry: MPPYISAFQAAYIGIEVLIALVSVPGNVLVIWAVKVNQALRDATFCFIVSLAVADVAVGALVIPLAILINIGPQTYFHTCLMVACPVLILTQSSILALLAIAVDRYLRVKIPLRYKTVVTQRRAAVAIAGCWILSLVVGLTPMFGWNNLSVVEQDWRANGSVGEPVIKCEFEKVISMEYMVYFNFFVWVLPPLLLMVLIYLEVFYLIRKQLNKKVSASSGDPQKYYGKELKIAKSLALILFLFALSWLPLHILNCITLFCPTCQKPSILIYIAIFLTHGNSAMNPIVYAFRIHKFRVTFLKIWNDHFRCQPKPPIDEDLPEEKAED
UniProt Q60612, whole entry: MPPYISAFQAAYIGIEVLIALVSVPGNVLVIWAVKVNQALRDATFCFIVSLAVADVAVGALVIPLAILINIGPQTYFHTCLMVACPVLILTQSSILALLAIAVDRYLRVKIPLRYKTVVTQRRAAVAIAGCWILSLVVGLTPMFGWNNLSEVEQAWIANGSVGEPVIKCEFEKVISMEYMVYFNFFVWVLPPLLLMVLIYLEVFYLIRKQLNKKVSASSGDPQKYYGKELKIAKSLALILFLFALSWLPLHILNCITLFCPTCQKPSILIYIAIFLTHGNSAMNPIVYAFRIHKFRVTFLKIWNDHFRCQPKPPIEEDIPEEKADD

Q: What does the source list for `CCNC(=O)[C@H]1O[C@@H](n2cnc3c(N)nc(NCCc4ccc(CCC(=O)O)cc4)nc32)[C@H](O)[C@@H]1O` [CGS21680, 4-((N-ethyl-5′-carbamoyladenos-2-yl)-aminoethyl)-phenyl-propionic acid]?
A: Affinity or potency at A1, rat (r), log (A1 adenosine receptor; [7] Hutchison et al. (1989), rat brain, radioligand [3H]CHA): −5.5 log mol/L; Ki (A1 adenosine receptor; read-out: Affinity or potency at A1, rat (r), [6] Maemoto et al. (1997), brain cortex, radioligand [3H]DPCPX): 36.3 µM

Q: With `CCCn1c(=O)c2[nH]c(C3CCCC3)nc2n(CCC)c1=O` [DPCPX, 8-cyclopentyl-1,3-dipropylxanthine] as the compound, how does the “Affinity or potency (Ki, KD, KB, IC50 or EC50) at A1, mouse (m), current study” value (A1 receptors) read?
A: 1.5 (1.1-2.1) nmol/L

Q: With `CCNC(=O)[C@H]1O[C@@H](n2cnc3c(N)ncnc32)[C@H](O)[C@@H]1O` [NECA, 5′-N-ethylcarboxamidoadenosine] as the compound, how does the “Affinity or potency (Ki, KD, KB, IC50 or EC50) at A2B, mouse (m), current study” value (A2B receptors) read?
A: 449 (291-693) nmol/L
